Laboratory results as given in PubChem BioAssay AID540317 (National Center for Advancing Translational Sciences (NCATS), 2011).
The entries are a selection whose mix differs from that of the whole data set. Results filed as inconclusive are left out. Active and inactive are the calls of the source. Calls come from the whole dose curve; as a rule, active = well fitted inhibition curve with a large enough effect; inconclusive = small, poorly fitted or top-dose-only effect; inactive = no such curve, though single readings can be large or run the other way.

Chains of the proteins cited; added tags and fusions are not shown.
UniProt P83916, whole entry, looked up: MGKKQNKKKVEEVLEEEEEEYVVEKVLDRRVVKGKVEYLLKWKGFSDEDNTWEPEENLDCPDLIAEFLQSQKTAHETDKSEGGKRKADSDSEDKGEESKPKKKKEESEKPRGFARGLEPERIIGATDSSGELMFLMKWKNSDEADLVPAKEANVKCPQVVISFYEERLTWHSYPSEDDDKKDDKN

molecular target: Chromobox protein homolog 1 (Homo sapiens) (UniProt P83916); assay: HTS for Inhibitors of HP1-beta Chromodomain Interactions with Methylated Histone Tails; details: AlphaScreen HP1-beta / biotin-H3K9me3 peptide binding; series mostly up to 114 µM; activity change, negative = inhibition: at the top concentration; note: nearly all actives have a fitted effect of over 70% in size
Potency is the fitted concentration of half-maximal effect.

Structure (SMILES)	activity change, negative = inhibition	Potency
O=[N+]([O-])c1ccc(Nc2ccc(Oc3ccc([N+](=O)[O-])cc3[N+](=O)[O-])cc2)c([N+](=O)[O-])c1	inactive: -9.23%	–
CCOC(=O)Nc1cccc([As](=O)(O)O)c1	inactive: 36.7%	–
O=P(/N=c1/nc(-c2ccccc2)n(-c2ccccc2)s1)(Nc1ccccc1)Nc1ccccc1	inactive: -10.8% [at 57 µM]	–
O=C(Nc1cc([As](=O)(O)O)ccc1O)c1ccccc1	inactive: 38.4%	–
O=P1(N(CCCl)CCCl)OCCCS1 (stereo not drawn)	inactive: 8.25% [at 57 µM]	–
O=C(O)CNc1ccc([As](=O)(O)O)cc1	inactive: 18.3%	–
COC(=O)C1(C)COP(=O)(Nc2ccccc2)OC1 (stereo not drawn)	inactive: 21.5%	–
O=[N+]([O-])c1cccc(NC2=NCC(CBr)S2)c1 (stereo not drawn)	inactive: 22.9%	–
O=[N+]([O-])c1ncn(CCn2ncnc2[N+](=O)[O-])n1	inactive: 23%	–
Cc1ccc(NP(=O)(Oc2ccccc2)Oc2ccccc2)nc1	inactive: 34.5%	–
CCc1nc2c(n1)c1c(non1O)c1c2no[n+]1[O-]	inactive: 19.1%	–
O=[N+]([O-])c1cccc2n[nH]nc12	inactive: 9.7%	–
CC(=O)N1C2C3N(C(C)=O)C1C1N(C(C)=O)C(C(N1C(C)=O)N3C(C)=O)N2C(C)=O	inactive: 17.1%	–
COc1ccc(C2=NCC(CBr)S2)cc1 (stereo not drawn)	inactive: 9.32%	–
CC1CCN(C(=O)Oc2c(Cl)cc(Cl)c3cccnc23)CC1	inactive: 43.6%	–
CC(C)=N/N=C(\N)N[N+](=O)[O-]	inactive: 1.69%	–
CN(C)C(=O)OCCc1n(C)cc[n+]1C	inactive: 37.1%	–

Structure (SMILES)	activity change, negative = inhibition	Potency
CCN(/C(=N/P(=O)(N1CCOCC1)N1CCOCC1)N1CCOCC1)c1ccc(OC)cc1	inactive: 36.5%	–
Nc1ccc([As](=O)(O)c2ccc(N)cc2)cc1	inactive: 27.5%	–
CN1CCCC(OC(=O)C(c2ccccc2)c2ccccc2)C1 (stereo not drawn)	inactive: 37%	–
Clc1ccc(Cl)c(NC2=NCC(CBr)S2)c1 (stereo not drawn)	inactive: 21.2%	–
COc1ccccc1OP(=O)(Nc1ccc(C)cn1)Oc1ccccc1OC	inactive: 11.1%	–
Cc1ccc(OP(=O)(Nc2nccs2)Oc2ccc(C)cc2)cc1	inactive: 31.6%	–
CN(C(=O)Cc1ccc(Cl)c(Cl)c1)[C@H]1CCCC[C@H]1N1CCCC1	inactive: 25.6%	–
Cc1ccc(N/C(=N/P(=O)(N2CCOCC2)N2CCOCC2)N2CCOCC2)cc1	inactive: 33.1%	–
NC(=O)c1cc([N+](=O)[O-])cc([N+](=O)[O-])c1N	inactive: 48.5%	–
Oc1ccccc1CNc1ccccn1	inactive: 9.97%	–
O=C(NC(Sc1ccncn1)C(Cl)(Cl)Cl)c1ccccc1 (stereo not drawn)	–	active: 25.1 µM
Nc1cc(N)c2nonc2c1[N+](=O)[O-]	inactive: 2.53%	–
CC(C)CC(=O)NC(Sc1ccc(Cl)cc1)C(Cl)(Cl)Cl (stereo not drawn)	inactive: 39%	–
CCOP(=O)(Nc1ccccc1)OCC	inactive: 23.4%	–
Cc1ccc(NP(=O)(Oc2ccccc2F)Oc2ccccc2F)nc1	inactive: 10.1%	–
CN(C(=O)Cc1ccc(Cl)c(Cl)c1)[C@H]1CCCC[C@@H]1N1CCCC1	inactive: 36.7%	–
